Among the data in PubChem BioAssay AID720511 (Broad Institute, 2013) are activity (quench increase) values, retold here.

Molecules are shown by their SMILES. The entries are a selection whose mix differs from that of the whole data set. Calls of active or inactive are those of the source.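 Rule for the calls: active = mean added fluorescence quench of at least 8% versus neutral control, with both replicates also reaching 8%; inconclusive = only one of the mean or replicate conditions met; inactive = mean below 8% and not both replicates reaching 8%.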

A short description of this assay: F508del CFTR correction, initial screen, CFBE line, single point (AID 720511).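 Note: corrector assay measuring rescue of mutant channel to the surface after 24 h compound exposure.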 The note with it: CFBE cells, YFP halide quenching, at 7.58 µM, stronger effect = higher value, % fluorescence drop versus neutral controls, stimulated with forskolin plus potentiator P3.
Take `Cc1cc(C)cc(N(C(=O)c2ccccc2)C2CCN(C(=O)OC(C)(C)C)CC2)c1`: the activity (quench increase) was inactive: 0.773%.

As to `O=C(NCC1(N2CCCCC2)CCCCC1)c1ccc(Cl)nc1`, the activity (quench increase) is inactive: -2.73%.

On to `O=c1[nH]c2ccccc2n1C1CCN(C(c2ccccc2OC(F)(F)F)c2nnnn2C2CCCCC2)CC1` (stereo not drawn), for which the activity (quench increase) is inactive: 3.52%.

For `CCCCn1nnnc1C(c1ccc(OC)cc1)N1CCC(n2c(=O)[nH]c3ccccc32)CC1` (stereo not drawn), the activity (quench increase) is inactive: 2.89%.

For `CCOC(=O)N1CCC(Nc2ccc(OC)cc2)CC1`, the activity (quench increase) was inactive: 2.47%.

For `COc1ccc(Cl)cc1C(=O)NCC1(N2CCOCC2)CCCCC1`, the activity (quench increase) is inactive: -1.98%.

`O=C(NCC1(N2CCCCC2)CCCCC1)c1ccc(Cl)s1`: the activity (quench increase) is inactive: 2.32%.

As to `N#CC1(Nc2ccccc2)CCN(Cc2ccccc2)CC1`, the activity (quench increase) was inactive: 0.342%.

As to `O=C(OC1CN2CCC1CC2)C1c2ccccc2Oc2ccccc21` (stereo not drawn), the activity (quench increase) was inactive: -0.525%.

Regarding `O=c1[nH]c2ccccc2n1C1CCN(C(c2cc3ccccc3o2)c2nnnn2C2CCCCC2)CC1` (stereo not drawn), the activity (quench increase) was inactive: -4.54%.

Consider `CCCCn1nnnc1C(CC)N1CCC(n2c(=O)[nH]c3ccccc32)CC1` (stereo not drawn), for which the activity (quench increase) is inactive: 3.8%.

Regarding `O=C(NCC1(N2CCCCC2)CCCCC1)c1cccs1`, the activity (quench increase) was inactive: -4.97%.

Regarding `CCCCn1nnnc1C(c1cccs1)N1CCC(n2c(=O)[nH]c3ccccc32)CC1` (stereo not drawn), the activity (quench increase) is inactive: 0.865%.

In the case of `O=C(NCC1(N2CCCCC2)CCCCC1)c1ccc(=O)[nH]c1`, the activity (quench increase) was inactive: -1.31%.

`COc1ccc(C(=O)NCC2(N3CCCCC3)CCCCC2)c(OC)c1OC`: the activity (quench increase) was inactive: -0.34%.

In the case of `CC(C)(C)OC(=O)N1CCC(N(C(=O)c2ccccc2)c2ccc(F)cc2)CC1`, the activity (quench increase) is inactive: 2.63%.

`CCC(c1nnnn1C1CCCC1)N1CCC(n2c(=O)[nH]c3ccccc32)CC1` (stereo not drawn): the activity (quench increase) was inactive: 0.383%.

As for `COc1ccc(C(=O)NCC2(N3CCCCC3)CCCCC2)cc1`, the activity (quench increase) was inactive: -1.98%.

Regarding `Cc1cccc(NC2(C#N)CCN(Cc3ccccc3)CC2)c1`, the activity (quench increase) was inactive: 0.42%.

For `CSc1ccccc1C(=O)NCC1(N2CCCCC2)CCCCC1`, the activity (quench increase) was inactive: 0.27%.

With `O=c1[nH]c2ccccc2n1C1CCN(C(c2ccccc2)c2nnnn2C2CCCCC2)CC1` (stereo not drawn), the activity (quench increase) was inactive: 2.18%.

For `O=c1[nH]c2ccccc2n1C1CCN(C(c2cccc3ccccc23)c2nnnn2C2CCCC2)CC1` (stereo not drawn), the activity (quench increase) is inactive: 2.03%.

Turning to `CCOC(=O)N1CCC(Nc2cccc(C)c2)CC1`, the activity (quench increase) was inactive: 2.85%.

In the case of `COc1cc(C(=O)NCC2(N(C)C)CCCCC2)ccc1OC(F)F`, the activity (quench increase) was inactive: 1.25%.

As to `CCOc1ccc(C)cc1CN(CCCl)CCCl`, the activity (quench increase) was inactive: 3.32%.

With `O=C1CCN(Cc2ccccc2)CC1`, the activity (quench increase) was inactive: 0.824%.

In the case of `CC(C)(C)n1nnnc1C(c1ccccc1)N1CCC(n2c(=O)[nH]c3ccccc32)CC1` (stereo not drawn), the activity (quench increase) was inactive: 0.271%.

With `CCOC(=O)N1CCC(Nc2ccc(F)cc2)CC1`, the activity (quench increase) is inactive: -2.08%.

For the compound `CCCCn1nnnc1C(c1cc2ccccc2o1)N1CCC(n2c(=O)[nH]c3ccccc32)CC1` (stereo not drawn), the activity (quench increase) is inactive: -0.497%.

As for `O=P1(N(CCCl)CCCl)SCCCS1`, the activity (quench increase) was inactive: -2.7%.

Take `CCCCOc1ccc(C(=O)NCC2(N3CCOCC3)CCCCC2)cc1`: the activity (quench increase) was inactive: -1.9%.

Turning to `O=C(NCC1(N2CCCCC2)CCCCC1)c1ccc(F)cc1`, the activity (quench increase) is inactive: -2.94%.

On to `O=C(NCC1(N2CCCCC2)CCCCC1)c1cccc(C(F)(F)F)c1`, for which the activity (quench increase) was inactive: -2.45%.

For the compound `CN1CCN(CCOC(=O)C(O)(c2ccccc2)c2ccccc2)CC1`, the activity (quench increase) is inactive: -1.24%.

As to `COc1ccc(NC2CCN(C(=O)OC(C)(C)C)CC2)cc1`, the activity (quench increase) was inactive: -0.053%.

On to `CC(C)c1ccc(C(=O)NCC2(N3CCOCC3)CCCCC2)cc1`, for which the activity (quench increase) was inactive: 4.59%.

As to `CCCCn1nnnc1C(c1cccc2ccccc12)N1CCC(n2c(=O)[nH]c3ccccc32)CC1` (stereo not drawn), the activity (quench increase) is inactive: -1.12%.

Turning to `COc1cc(C(=O)NCC2(N3CCCCC3)CCCCC2)ccc1OC(F)F`, the activity (quench increase) is inactive: 0.825%.

Regarding `O=C(NCC1(N2CCCCC2)CCCCC1)c1ccc(OC(F)F)cc1`, the activity (quench increase) is inactive: -0.181%.

Turning to `CC(C)(C)n1nnnc1C(c1ccccc1OC(F)(F)F)N1CCC(n2c(=O)[nH]c3ccccc32)CC1` (stereo not drawn), the activity (quench increase) was inactive: -2.9%.

On to `O=C(NCC1(N2CCCCC2)CCCCC1)c1cccc([N+](=O)[O-])c1`, for which the activity (quench increase) is inactive: -1.06%.

Regarding `CSc1ccc(C(=O)NCC2(N3CCOCC3)CCCCC2)cc1`, the activity (quench increase) is inactive: 0.167%.

Turning to `O=c1[nH]c2ccccc2n1C1CCN(C(c2ccccc2OC(F)(F)F)c2nnnn2C2CCCC2)CC1` (stereo not drawn), the activity (quench increase) was inactive: -1.97%.

On to `CCN1CCC(Nc2ccc(Cl)cc2)CC1`, for which the activity (quench increase) is inactive: -1.91%.

Regarding `CN1CCC(Nc2cccc(F)c2)CC1`, the activity (quench increase) is inactive: 0.071%.

For the compound `O=C(NCC1(N2CCCCC2)CCCCC1)c1cncc(Br)c1`, the activity (quench increase) is inactive: -4.72%.

Take `CCCOc1ccc(C(=O)NCC2(N(C)C)CCCCC2)cc1OC`: the activity (quench increase) was inactive: -4.22%.

For the compound `Cc1ccc(C(=O)NCC2(N(C)C)CCCCC2)o1`, the activity (quench increase) is inactive: 0.534%.

Turning to `COc1ccc(C(c2nnnn2C2CCCC2)N2CCC(n3c(=O)[nH]c4ccccc43)CC2)cc1` (stereo not drawn), the activity (quench increase) was inactive: 0.852%.

Turning to `CN(C)c1cccc(C(=O)NCC2(N3CCCCC3)CCCCC2)c1`, the activity (quench increase) was inactive: -0.693%.

`COc1ccc(CN(CCCl)CCCl)cc1Cl`: the activity (quench increase) was inactive: -3.29%.

For `CC(C)c1ccc(NC2CCN(C(=O)OC(C)(C)C)CC2)cc1`, the activity (quench increase) was inactive: 6.05%.

`CCCCn1nnnc1C(c1ccnc2ccccc12)N1CCC(n2c(=O)[nH]c3ccccc32)CC1` (stereo not drawn): the activity (quench increase) is inactive: -1.54%.

For `CCC(c1nnnn1C(C)(C)C)N1CCC(n2c(=O)[nH]c3ccccc32)CC1` (stereo not drawn), the activity (quench increase) was inactive: 1%.

Regarding `O=C(NCC1(N2CCOCC2)CCCCC1)c1cc(F)c(F)cc1Cl`, the activity (quench increase) was inactive: 4.27%.

On to `COc1cc(OC)c(C(=O)NCC2(N(C)C)CCCCC2)cc1OC`, for which the activity (quench increase) was inactive: -0.532%.

`CCOC(=O)N1CCC(Nc2ccc(C)cc2)CC1`: the activity (quench increase) was inactive: -0.106%.

`COc1cccc(C(c2nnnn2C(C)(C)C)N2CCC(n3c(=O)[nH]c4ccccc43)CC2)c1OC` (stereo not drawn): the activity (quench increase) is inactive: 1.65%.

With `CCCCn1nnnc1C(c1cccc(OC)c1OC)N1CCC(n2c(=O)[nH]c3ccccc32)CC1` (stereo not drawn), the activity (quench increase) is inactive: 1.93%.

Turning to `O=c1[nH]c2ccccc2n1C1CCN(C(c2cccs2)c2nnnn2C2CCCC2)CC1` (stereo not drawn), the activity (quench increase) is inactive: -0.398%.

Turning to `O=C(NCC1(N2CCOCC2)CCCCC1)c1cc(Br)ccc1Cl`, the activity (quench increase) is inactive: -2.26%.

For the compound `COc1cc(C(=O)NCC2(N3CCOCC3)CCCCC2)cc(OC)c1C`, the activity (quench increase) was inactive: 4.09%.

Regarding `CCCCn1nnnc1C(c1ccccc1)N1CCC(n2c(=O)[nH]c3ccccc32)CC1` (stereo not drawn), the activity (quench increase) was inactive: -0.486%.

As for `O=c1[nH]c2ccccc2n1C1CCN(C(c2ccnc3ccccc23)c2nnnn2C2CCCC2)CC1` (stereo not drawn), the activity (quench increase) is inactive: 2.64%.

In the case of `COc1ccc(C(=O)NCC2(N3CCOCC3)CCCCC2)cc1OC`, the activity (quench increase) was inactive: 0.604%.

As to `O=c1[nH]c2ccccc2n1C1CCN(C(c2cccs2)c2nnnn2C2CCCCC2)CC1` (stereo not drawn), the activity (quench increase) was inactive: -3.32%.

With `O=c1[nH]c2ccccc2n1C1CCN(C(c2ccccc2)c2nnnn2C2CCCC2)CC1` (stereo not drawn), the activity (quench increase) was inactive: 0.131%.

In the case of `CCCN1CCC(Nc2cc(OC)cc(OC)c2)CC1`, the activity (quench increase) is inactive: 1.03%.

On to `Cc1cc(N(CCCl)CCCl)ccc1C=O`, for which the activity (quench increase) is inactive: 2.67%.

For the compound `C/C(N)=N\P(=O)(Oc1ccccc1)Oc1ccccc1`, the activity (quench increase) is inactive: -0.017%.

In the case of `CN(C)C1(CNC(=O)c2cccc(C#N)c2)CCCCC1`, the activity (quench increase) is inactive: 1.12%.

Turning to `CC(C)(C)n1nnnc1C(c1cccc2ccccc12)N1CCC(n2c(=O)[nH]c3ccccc32)CC1` (stereo not drawn), the activity (quench increase) was inactive: -1.98%.

Regarding `CC(C)(C)OC(=O)N1CCC(N(C(=O)c2ccccc2)c2ccc(Cl)cc2)CC1`, the activity (quench increase) is inactive: -0.062%.

Turning to `N#Cc1ccc(C(=O)NCC2(N3CCCCC3)CCCCC2)cc1`, the activity (quench increase) is inactive: -2.57%.

Consider `COc1ccc(C(c2nnnn2C2CCCCC2)N2CCC(n3c(=O)[nH]c4ccccc43)CC2)cc1` (stereo not drawn), for which the activity (quench increase) was inactive: 2.73%.

Take `CC(C)(C)n1nnnc1C(c1ccnc2ccccc12)N1CCC(n2c(=O)[nH]c3ccccc32)CC1` (stereo not drawn): the activity (quench increase) was inactive: 4.5%.

Take `Cc1ccccc1NC1(C#N)CCN(Cc2ccccc2)CC1`: the activity (quench increase) is inactive: 3.71%.

For `CN(C)c1ccc(C(=O)NCC2(N3CCCCC3)CCCCC2)cc1`, the activity (quench increase) was inactive: -4.43%.

Regarding `Cn1c(=O)[nH]cc(N(CCCl)CCCl)c1=O`, the activity (quench increase) was inactive: 1.67%.

As for `O=C(NCC1(N2CCCCC2)CCCCC1)c1ccco1`, the activity (quench increase) was inactive: 1.66%.

Regarding `COc1cc(OC)cc(C(=O)NCC2(N3CCCCC3)CCCCC2)c1`, the activity (quench increase) was inactive: 0.902%.

With `O=c1[nH]c2ccccc2n1C1CCN(C(c2ccnc3ccccc23)c2nnnn2C2CCCCC2)CC1` (stereo not drawn), the activity (quench increase) is inactive: -0.676%.

As to `CCC(c1nnnn1C1CCCCC1)N1CCC(n2c(=O)[nH]c3ccccc32)CC1` (stereo not drawn), the activity (quench increase) is inactive: 0.132%.

As for `COc1cccc(C(c2nnnn2C2CCCCC2)N2CCC(n3c(=O)[nH]c4ccccc43)CC2)c1OC` (stereo not drawn), the activity (quench increase) is inactive: -1.74%.

As for `CC(=O)N(c1ccccc1)C1CCNCC1`, the activity (quench increase) is inactive: 2.24%.

Turning to `Cc1ccc(NC2(C#N)CCN(Cc3ccccc3)CC2)cc1`, the activity (quench increase) was inactive: -7.16%.

For `Fc1ccccc1NC1CCN(Cc2ccccc2)CC1`, the activity (quench increase) was inactive: -0.615%.

`Cc1ccc(C(=O)NCC2(N3CCCCC3)CCCCC2)o1`: the activity (quench increase) is inactive: 0.384%.

On to `COc1cc(OC)cc(C(=O)NCC2(N3CCOCC3)CCCCC2)c1`, for which the activity (quench increase) is inactive: -0.959%.

As for `COc1cccc(C(c2nnnn2C2CCCC2)N2CCC(n3c(=O)[nH]c4ccccc43)CC2)c1OC` (stereo not drawn), the activity (quench increase) was inactive: 0.363%.

`COc1cccc(C(=O)N(c2cc(C)cc(C)c2)C2CCN(C(=O)OC(C)(C)C)CC2)c1`: the activity (quench increase) was inactive: 0.032%.

As to `CN1CCC(Nc2ccc(Cl)cc2)CC1`, the activity (quench increase) is inactive: 0.154%.

In the case of `CN1CCC(Nc2ccc(F)c(Cl)c2)CC1`, the activity (quench increase) is inactive: -1.8%.

As for `O=c1[nH]c2ccccc2n1C1CCN(C(c2cc3ccccc3o2)c2nnnn2C2CCCC2)CC1` (stereo not drawn), the activity (quench increase) is inactive: -2.14%.

`CCCOc1ccc(C(=O)NCC2(N(C)C)CCCCC2)cc1`: the activity (quench increase) was inactive: -2.23%.

Take `O=C(O)C1(Nc2ccccc2)CCN(Cc2ccccc2)CC1`: the activity (quench increase) was inactive: -0.355%.

Consider `NN(c1ccccc1)C1CCN(CCc2ccccc2)CC1`, for which the activity (quench increase) is inactive: -4.79%.

Take `CC(C)(C)OC(=O)N1CCC(Nc2ccccc2)CC1`: the activity (quench increase) is inactive: 0.495%.
